Assay results as given in ChEMBL document CHEMBL5316269, “Rational Design of a New RXR Agonist Scaffold Enabling Single-Subtype Preference for RXRα, RXRβ, and RXRγ” (J Med Chem, 2023).

Biological target: T1, Retinoic acid receptor RXR-alpha (Homo sapiens) (UniProt P19793)
T1 sequence (whole entry): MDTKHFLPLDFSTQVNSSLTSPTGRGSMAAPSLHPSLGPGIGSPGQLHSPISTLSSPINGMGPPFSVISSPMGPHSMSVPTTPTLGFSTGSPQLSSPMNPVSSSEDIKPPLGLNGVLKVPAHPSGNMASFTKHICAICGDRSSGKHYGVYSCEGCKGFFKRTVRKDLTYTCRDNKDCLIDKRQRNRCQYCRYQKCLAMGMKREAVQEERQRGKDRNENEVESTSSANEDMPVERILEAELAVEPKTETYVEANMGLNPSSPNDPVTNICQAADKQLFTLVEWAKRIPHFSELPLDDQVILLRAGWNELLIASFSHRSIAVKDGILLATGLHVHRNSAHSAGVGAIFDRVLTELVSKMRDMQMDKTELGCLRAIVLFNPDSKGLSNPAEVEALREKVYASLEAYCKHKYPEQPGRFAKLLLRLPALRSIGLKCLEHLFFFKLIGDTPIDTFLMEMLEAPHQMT
Experiment: Agonist activity at human GAL4-fused RXRalpha LBD expressed in human HEK293T cells cotransfected with pFR-Luc and pRL-SV40 assessed as increase in luciferase activity at 100 uM incubated for 16 hrs by Dual-Glo luciferase assay
Type: cell-based

Activity: inactive
Compound: O=C(O)c1ccccc1COc1cccc2c1CCC2

The source made the active and inactive calls. The calls are words filed in the database; no cut-off is given here.
